The target of this experiment is human CB2 receptor (Homo sapiens, UniProt P34972). Description: CB2 beta-arrestin receptor activation (PathHunter chemiluminescence). Type of experiment: cell-based. As for the experimental part: FIG. 4. […] Ligand receptor interactions were determined by increases in chemiluminescence generated upon interaction of the EA labeled beta arrestin with the Pro-Link tagged receptor (see Methods). […] See text for more details.
Receptor activation with the CB2 beta arrestin system was carried out essentially as in (20,21). HEK cells stably overexpressing human CB2 receptor tagged with Pro-Link and EA labeled beta-arrestin (Discoverx, Fremont Calif.) were plated at 20,000 cells/well of a 96 well plate. […] Ligand receptor interaction was determined by measuring chemiluminescence using the Pathhunter EFC detection kit (Discoverx, Fremont, Calif.), generated upon coupling of the EA labeled beta arrestin with the Pro-Link tagged receptor, with a plate reader (Envision, Perkin Elmer, Santa Clara, Calif.).
To this end, recombinant human CB receptors were overexpressed in a beta-arrestin system as described in Experimental Procedures.

Sequences of proteins named here, by UniProt entry; tags and fusion partners are left off.
UniProt P34972, whole entry: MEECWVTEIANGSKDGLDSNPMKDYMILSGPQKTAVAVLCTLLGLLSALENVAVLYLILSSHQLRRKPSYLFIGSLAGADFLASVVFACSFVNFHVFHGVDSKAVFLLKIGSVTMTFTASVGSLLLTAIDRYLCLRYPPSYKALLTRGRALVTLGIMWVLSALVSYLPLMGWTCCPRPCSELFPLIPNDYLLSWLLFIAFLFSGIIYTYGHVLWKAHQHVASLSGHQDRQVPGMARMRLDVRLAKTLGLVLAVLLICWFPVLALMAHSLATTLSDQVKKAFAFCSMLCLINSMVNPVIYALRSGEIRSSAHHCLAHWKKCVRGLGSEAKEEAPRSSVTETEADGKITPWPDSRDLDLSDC

Molecules are shown by their SMILES. pEC50: −log10 of the molar value.

In general, pEC50 refers to the negative decadic logarithm of the EC50, by convention in mol/L. High values mean a low EC50, low ones a high EC50.

Molecule `CCCCC/C=C\C/C=C\C/C=C\C/C=C\CCCC(=O)NCCO` [AEA, arachidonoylethanolamide] had a pEC50 of roughly 9.96.

These data come from patent publication US9416118B2, “Docosahexaenoyl ethanolamides” (The Brigham and Women's Hospital, Inc., priority 2011, dated 2016).
